Screening data (PubChem)
A549 tox: kills or reduces viability of A549 cells in Nrf2 counter-screen; Potency, µM (series often up to 46 µM), without a hit: at the highest dose activity change, negative = cytotoxicity, most hits filed as inhibitors; 0.16% of 390,000 active; AID 504648; A549 ARE-Fluc cells, CellTiter-Fluor viability, 18-24 h; further: potency means the concentration at half of the fitted maximal effect; on the % scale 0 is the no-effect control and ±100 the full control effect
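Cytotoxicity counterscreen: CellTiter-Fluor fluorescence was measured in A549 ARE_Fluc cells after 18-24 h of compound exposure in a concentration series. The subsequent BugLite luminescent read reports ARE-luciferase activity.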
GALK inh: blocks human galactokinase activity. P51570. Purified GALK, Kinase-Glo residual ATP luminescence. Potency, µM (top dose mostly 57.5 µM), for the others: top-dose activity change, negative = inhibition, hits mostly inhibitors. 0.007% of 270,000 active. AID 1868; further: potency means the concentration at half of the fitted maximal effect; on the % scale 0 is the no-effect control and ±100 the full control effect
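Galactose (100 uM) and ATP (35 uM) were turned over by 5 nM GALK for 1 h at RT. Kinase-Glo Plus then converted the remaining ATP into a luminescent signal.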
PI4K2A block: PI4K2A (human) kinase inhibition; Q9BTU6; purified PI4K2A, ADP-Glo luminescence, 1 h; active compounds read low; activity change, negative = inhibition, % at 76.9 µM; 0.13% of 420,000 active; AID 1346378; in the data active means activity change below about -50%; inconclusive means mostly about -30% to -49%;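 further: -100% = wells without enzyme as full effect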
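In this quantitative HTS, ADP production by PI4K2A was quantified luminescently after 1 h at ambient temperature; 100 microM adenosine served as plate-quality control.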
Nrf2 ARE act: activates Nrf2 signaling | Potency, µM (titrated, usually from 46.1 µM), for inactives: at the highest dose activation, most hits filed as activators | AREc32 ARE-luciferase reporter (MCF7-derived line), luminescence, 24 h | 0.31% of 410,000 active; further: potency means the concentration at half of the fitted maximal effect; % of control where 0% means no effect; nearly all actives have a fitted effect of over 65% in size
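AREc32 cells carrying an ARE-driven firefly luciferase reporter were seeded at 1000 cells/well in OPTI-MEM with 5% FBS, then exposed to compound for 24 hr at 37 deg C. Luminescence was read with Steady-Glo after 30 min at RT.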
Nrf2 block: Nrf2 pathway inhibition; A549 ARE-Fluc reporter, luciferase luminescence, 18-24 h; Potency, µM (highest dose often 46 µM), without a hit: at the top dose activity change, negative = inhibition, usual class: inhibitors; 2.1% of 360,000 active; further: potency means the concentration at half of the fitted maximal effect; on the % scale 0 is the no-effect control and ±100 the full control effect; nearly all actives have a fitted effect of over 60% in size
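Two sequential reads on A549 ARE_Fluc cells exposed to compound for 18-24 h: a CellTiter-Fluor fluorescence read for viability, then a luciferase luminescence read for Nrf2/ARE activity.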
miR-21 FLuc: miR-21 reporter, rising signal | 340,000 tested, under 10 active | AID 2288 | HeLa miR-21 FLuc reporter, luciferase, 48 h | Potency, µM (titrated, usually from 38.3 µM), for inactives: at the highest dose reporter change, positive = more light; active = well fitted rising curve with a large enough effect; inconclusive = small, poorly fitted or top-dose-only effect; inactive = no such curve, though single readings can be large or run the other way;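 further: % of control where 0% means no effect; miR-21 action dims this reporter so a rising signal means less miR-21 action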
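HeLa cells stably expressing CMV-driven firefly luciferase with a downstream miR-21 binding sequence, endogenously expressing miR-21, were treated with titrations (up to about 40uM final) for 48 hours at 37 degree Celsius. Luciferase luminescence was read after lysis.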
Starred values were filed as active, the others as inactive; ? = inconclusive; · = no result given. An excerpt weighted towards active compounds, which were near 2.2% of everything screened. Unless noted, the call rests on the fitted dose curve; in most records, active means well fitted curve in the direction sought with a large enough effect; inconclusive means small, poorly fitted or top-dose-only effect, or another doubt; inactive means no such curve, though single readings can be large; an effect the other way counts as inactive or inconclusive.

Preview, 4 compounds:
nr	SMILES	A549 tox	GALK inh	PI4K2A block	Nrf2 ARE act	Nrf2 block	miR-21 FLuc
1	CCC1(C)Cc2c(sc3nnn(Cc4ccccc4Cl)c(=O)c23)CO1 (stereo not drawn)	-14%	-3%	-9	-1%	15µM*	-5%
2	O=C(Nc1nc2ncccn2c1-c1ccc(C(F)(F)F)cc1)c1ccccc1	·	·	0	·	·	·
3	N#Cc1c(N)n(C2OC(CO)C(O)C2O)c2ncnc(N)c12 (stereo not drawn)	?	·	-62*	-2%	?	·
4	CCCCn1nc(NC(=O)c2cccs2)c2cc3ccccc3nc21	-18%	0%	0	0%	12µM*	1%

The list itself, from the first entry:
nr	SMILES	A549 tox	GALK inh	PI4K2A block	Nrf2 ARE act	Nrf2 block	miR-21 FLuc
1	CCC1(C)Cc2c(sc3nnn(Cc4ccccc4Cl)c(=O)c23)CO1 (stereo not drawn)	-14%	-3%	-9	-1%	15µM*	-5%
2	O=C(Nc1nc2ncccn2c1-c1ccc(C(F)(F)F)cc1)c1ccccc1	·	·	0	·	·	·
3	N#Cc1c(N)n(C2OC(CO)C(O)C2O)c2ncnc(N)c12 (stereo not drawn)	?	·	-62*	-2%	?	·
4	CCCCn1nc(NC(=O)c2cccs2)c2cc3ccccc3nc21	-18%	0%	0	0%	12µM*	1%
5	CCCn1nc(NC(=O)c2cccs2)c2cc3cc(C)ccc3nc21	-16%	·	0	2%	16µM*	-8%
6	CCCn1nc(NC(=O)c2cccs2)c2cc3ccc(C)cc3nc21	?	-3%	-1	6%	?	8%
7	CCCn1nc(NC(=O)c2cccs2)c2cc3ccccc3nc21	·	-1%	-1	0%	18µM*	0%
8	CCOc1ccc(N(C)S(=O)(=O)c2cc(-c3cc(C)no3)ccc2C)cc1	-12%	-6%	1	0%	18µM*	29%
9	O=C(CC1SC(N2CCCCC2)=NC1=O)Nc1cccc(C(F)(F)F)c1 (stereo not drawn)	-11%	-1%	5	2%	21µM*	1%
10	Nc1nc(SCC(=O)Nc2cccc(C(F)(F)F)c2)n[nH]1	4%	·	-6	1%	18µM*	0%
11	COc1ccc(NC(=O)CC2SC(N3CCOCC3)=NC2=O)cc1OC (stereo not drawn)	-4%	·	2	0%	15µM*	·
12	COc1ccc(NC(=O)CC2SC(N3CCCC3)=NC2=O)cc1Cl (stereo not drawn)	6%	·	3	0%	3%	·
13	CC(=O)c1cccc(NC(=O)CC2SC(N3CCCCC3)=NC2=O)c1 (stereo not drawn)	1%	8%	6	0%	·	-5%
14	Nc1nc(SCC(=O)Nc2cccc(F)c2)n[nH]1	-1%	·	-3	0%	6%	·
15	O=C1CCCN2N=C(SCC(=O)Nc3cccc(C(F)(F)F)c3)SC2=N1	0%	0%	-4	6%	16µM*	20%
16	COc1cccc(C2c3c(ncn(-c4ccccc4-c4ccccc4)c3=N)Oc3ccc4ccccc4c32)c1 (stereo not drawn)	-1%	·	·	·	18%	·
17	COc1ccc(C(=O)Nc2sc3c(c2C#N)CCN(C(C)=O)C3)cc1	-11%	1%	-4	-1%	?	22%
18	CC(=O)N1CCc2c(sc(NC(=O)c3ccc([N+](=O)[O-])o3)c2C#N)C1	21µM*	7%	-6	?	26µM*	-23%
19	O=C(CSc1ncnc2ccccc12)Nc1cccc(S(=O)(=O)N2CCOCC2)c1	-10%	7%	1	15%	16µM*	3%
20	CCCc1nc2ccccc2c(C(=O)OCC(=O)Nc2ccc(S(=O)(=O)N3CCOCC3)cc2)c1CC	?	-1%	3	0%	23µM*	?
21	Cc1onc(-c2ccccc2Cl)c1C(=O)OCC(=O)Nc1cccc(S(=O)(=O)N2CCOCC2)c1	-7%	-2%	3	0%	18µM*	15%
22	O=C(CSc1nc2cc(Cl)ccc2s1)Nc1cccc(S(=O)(=O)N2CCOCC2)c1	-5%	-2%	-2	0%	23µM*	5%
23	O=C(COC(=O)c1cnc(Cl)c(Cl)c1)Nc1cccc(S(=O)(=O)N2CCOCC2)c1	-4%	·	1	3%	3%	·
24	CCCc1nc2ccccc2c(C(=O)OCC(=O)Nc2cccc(S(=O)(=O)N3CCOCC3)c2)c1CC	?	·	-5	-1%	?	29%
25	O=C(CSc1nc2ccccc2s1)Nc1ccc(Cl)c(S(=O)(=O)N2CCOCC2)c1	-5%	-2%	-1	8%	?	5%
26	O=C(COc1ncnc2ccccc12)Nc1cccc(S(=O)(=O)N2CCOCC2)c1	-3%	0%	-2	0%	5%	-1%
27	O=C(c1ccccc1)N1CC[C@H]2[C@H](CCCN2Cc2cc(F)cc(F)c2)C1	·	·	-1	·	·	·
28	CC[C@@H](CCCCCC#N)CCC(=O)N(c1ccccc1)c1ccccc1	·	·	2	·	·	·
29	COC1=CC(=O)c2nc(Cl)ccc2C1=O	·	·	-58*	-4%	·	·
30	S=C(Nc1ccc(Cl)cc1)OC1CCC12CCC(c1ccccc1)CC2 (stereo not drawn)	·	·	-2	·	·	·
31	O=C(NNc1ccc([N+](=O)[O-])cc1)Nc1ccccc1	-14%	-4%	-2	3%	?	1%
32	O=C(NNc1ccccc1)C(=O)NNS(=O)(=O)c1ccc([N+](=O)[O-])cc1	-15%	0%	-1	1%	18µM*	16%
33	Cc1ccc2c(c1)C1CS(=O)(=O)N(CCc3ccccc3)C(=O)N1C2 (stereo not drawn)	·	·	-3	·	·	·
34	CCC(C)[C@@H](C(=O)OC)N(Cc1cn(Cc2ccccc2)nn1)S(=O)(=O)c1ccccc1Br (stereo partly drawn)	·	·	2	·	·	·
35	Cc1ccc(-c2nc(NC(=O)c3cc(C(C)(C)C)nn3C)sc2C)cc1Cl	-5%	-3%	-24	0%	21µM*	2%
36	CC1CCc2nc(NC(=O)c3cc(C(C)(C)C)nn3C)sc2C1 (stereo not drawn)	-1%	5%	-5	0%	-14%	-5%
37	O=C(Nc1sc2c(c1C(=O)O)CCCCC2)c1ccccc1	-11%	2%	2	4%	?	14%
38	O=C(Nc1sc2c(c1C(=O)O)CCCC2)c1ccc(Cl)cc1	?	-9%	-1	0%	6.5µM*	21%
39	COC(=O)[C@]12C[C@H](CC(=O)NCc3cccc(C(F)(F)F)c3)C(=O)N(CCC3=CCCCC3)C1=C[C@H](C1CCCC1)O[C@@H]2C	·	·	-6	·	·	·
40	CCOC(=O)c1[nH]c2c(c1-c1ccccc1)C(=O)CC(c1ccc(OC)c(OC)c1)C2 (stereo not drawn)	0%	·	3	1%	21µM*	2%
41	CCOCCOC(=O)c1[nH]c2c(c1C)C(=O)CC(c1cc(OC)c(OC)c(OC)c1)C2 (stereo not drawn)	-8%	2%	1	1%	23µM*	28%
42	CCN(c1ccccc1)C(CNS(=O)(=O)c1ccccc1)c1ccccc1 (stereo not drawn)	-24%	·	2	0%	23µM*	?
43	CCOc1ccc(N(CC(=O)Nc2cccc(Cl)c2)S(=O)(=O)c2c(C)noc2C)cc1	?	1%	0	0%	23µM*	?

Entries of single compounds from above. Values in the order: A549 tox | GALK inh | PI4K2A block | Nrf2 ARE act | Nrf2 block | miR-21 FLuc
CC1CCc2nc(NC(=O)c3cc(C(C)(C)C)nn3C)sc2C1 (stereo not drawn) is listed with -1% | 5% | -5 | 0% | -14% | -5%
COC(=O)[C@]12C[C@H](CC(=O)NCc3cccc(C(F)(F)F)c3)C(=O)N(CCC3=CCCCC3)C1=C[C@H](C1CCCC1)O[C@@H]2C is listed with · | · | -6 | · | · | ·
